Measured values published in patent publication US9815839B2, “N-(1-(substituted-phenyl)ethyl)-9H-purin-6-amines as PI3K inhibitors” (Incyte Corporation, priority 2010, dated 2017).

Chains of the proteins cited; added tags and fusions are not shown. Lines headed by an entry give the natural chain unless they say otherwise; changes in a name come on top.
UniProt O00329, whole entry, species assumed: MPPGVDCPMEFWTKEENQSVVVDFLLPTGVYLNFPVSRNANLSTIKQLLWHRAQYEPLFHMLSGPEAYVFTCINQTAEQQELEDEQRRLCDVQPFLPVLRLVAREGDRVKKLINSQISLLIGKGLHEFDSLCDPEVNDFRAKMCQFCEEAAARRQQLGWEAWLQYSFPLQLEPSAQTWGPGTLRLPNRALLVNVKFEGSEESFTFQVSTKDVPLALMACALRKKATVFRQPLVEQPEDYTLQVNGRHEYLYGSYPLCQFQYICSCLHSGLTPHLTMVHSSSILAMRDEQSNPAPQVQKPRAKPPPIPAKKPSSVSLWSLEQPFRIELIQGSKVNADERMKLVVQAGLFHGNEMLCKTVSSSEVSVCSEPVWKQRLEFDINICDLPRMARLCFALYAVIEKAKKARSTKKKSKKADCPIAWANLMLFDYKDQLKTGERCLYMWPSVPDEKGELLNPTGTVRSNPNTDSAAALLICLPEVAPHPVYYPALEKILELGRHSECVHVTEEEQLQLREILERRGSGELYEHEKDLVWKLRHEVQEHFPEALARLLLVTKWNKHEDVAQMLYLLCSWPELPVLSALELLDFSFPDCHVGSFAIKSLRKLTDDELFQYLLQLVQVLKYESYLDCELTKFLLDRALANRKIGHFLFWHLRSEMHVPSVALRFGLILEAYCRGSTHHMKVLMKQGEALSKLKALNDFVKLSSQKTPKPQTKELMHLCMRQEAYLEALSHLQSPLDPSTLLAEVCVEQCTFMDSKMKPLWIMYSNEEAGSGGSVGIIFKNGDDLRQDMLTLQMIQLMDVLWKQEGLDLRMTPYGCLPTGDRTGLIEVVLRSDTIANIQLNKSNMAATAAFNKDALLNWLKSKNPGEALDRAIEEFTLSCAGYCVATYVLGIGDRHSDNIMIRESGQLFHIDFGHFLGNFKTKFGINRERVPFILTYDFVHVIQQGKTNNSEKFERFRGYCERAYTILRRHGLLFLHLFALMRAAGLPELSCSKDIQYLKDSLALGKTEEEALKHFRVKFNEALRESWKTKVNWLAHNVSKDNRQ

target: T1, PI3Kδ (p110δ/p85α) (Homo sapiens, UniProt O00329); test: PI3Kδ scintillation proximity assay; format: biochemical; conditions: 20 μM ATP, 4 nM PI3Kδ
T1 construct: purchased Millipore (Bedford, Mass.)
Source text: Example A: PI3Kδ Scintillation Proximity Assay
Materials: [γ-^33P]ATP (10 mCi/mL) was purchased from Perkin-Elmer (Waltham, Mass.). Lipid kinase substrate, D-myo-Phosphatidylinositol 4,5-bisphosphate (PtdIns(4,5)P2)D (+)-sn-1,2-di-O-octanoylglyceryl, 3-O-phospho linked (PIP2), CAS 204858-53-7, was purchased from Echelon Biosciences (Salt Lake City, Utah). PI3Kδ (p110δ/p85α) was purchased from Millipore (Bedford, Mass.). ATP, MgCl2, DTT, EDTA, MOPS and CHAPS were purchased from Sigma-Aldrich (St. Louis, Mo.). Wheat Germ Agglutinin (WGA) YSi SPA Scintillation Beads was purchased from GE healthcare life sciences (Piscataway, N.J.).
The kinase reaction was conducted in polystyrene 384-well matrix white plate from Thermo Fisher Scientific in a final volume of 25 μL. Inhibitors were first diluted serially in DMSO and added to the plate wells before the addition of other reaction components. The final concentration of DMSO in the assay was 0.5%. The PI3K assays were carried out at room temperature in 20 mM MOPS, pH 6.7, 10 mM MgCl2, 5 mM DTT and CHAPS 0.03%. Reactions were initiated by the addition of ATP, the final reaction mixture consisted of 20 μM PIP2,20 μM ATP, 0.2 μCi [γ-^33P] ATP, 4 nM PI3Kδ. Reactions were incubated for 210 minutes and terminated by the addition of 40 μL SPA beads suspended in quench buffer: 150 mM potassium phosphate pH 8.0, 20% glycerol. 25 mM EDTA, 400 µM ATP. The final concentration of SPA beads is 1.0 mg/mL. After the plate sealing, plates were shaken overnight at room temperature and centrifuged at 1800 rpm for 10 minutes, the radioactivity of the product was determined by scintillation counting on Topcount (Perkin-Elmer). IC50 determination was performed by fitting the curve of percent control activity versus the log of the inhibitor concentration using the GraphPad Prism 3.0 software.

IC50, < 50 nM:
COc1c(C(C)Nc2ncnc3[nH]cnc23)cc(Cl)c(C)c1-c1ccc(S(C)(=O)=O)cc1 (stereo not shown) [Example 32, N-{1-[5-chloro-2-methoxy-6-methyl-4′-(methylsulfonyl)biphenyl-3-yl]ethyl}-9H-purin-6-amine]
Cc1c(Cl)cc(C(C)Nc2ncnc3[nH]cnc23)c(-c2cccc(F)c2)c1-c1cnn(C)c1 (stereo not shown) [Example 73, N-{1-[4-chloro-3′-fluoro-5-methyl-6-(1-methyl-1H-pyrazol-4-yl)biphenyl-2-yl]ethyl}-9H-purin-6-amine]
COc1c(C(C)Nc2ncnc3[nH]cnc23)cc(Cl)c(C)c1-c1cncc(S(C)(=O)=O)c1 (stereo not shown) [Example 56, N-(1-{5-chloro-2-methoxy-4-methyl-3-[5-(methylsulfonyl)pyridin-3-yl]phenyl}ethyl)-9H-purin-6-amine]
COc1c(C(C)Nc2ncnc3[nH]cnc23)cc(Cl)c(C)c1-c1ccc(S(C)(=O)=O)cc1 (single isomer, unassigned) [Example 116, N-{1-[5-chloro-2-methoxy-6-methyl-4′-(methylsulfonyl)biphenyl-3-yl]ethyl}-9H-purin-6-amine]
